Literature values, collected in paper PMC9166750.

Protein sequences, listed by entry. Tags and fused reporters are not part of them.
UniProt P60880, whole entry: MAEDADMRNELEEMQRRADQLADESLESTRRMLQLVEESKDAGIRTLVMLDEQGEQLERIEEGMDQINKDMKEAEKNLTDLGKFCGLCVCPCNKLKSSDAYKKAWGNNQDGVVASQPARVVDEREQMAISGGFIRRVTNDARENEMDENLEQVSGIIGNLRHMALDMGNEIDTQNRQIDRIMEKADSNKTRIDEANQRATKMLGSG
UniProt Q16623, whole entry: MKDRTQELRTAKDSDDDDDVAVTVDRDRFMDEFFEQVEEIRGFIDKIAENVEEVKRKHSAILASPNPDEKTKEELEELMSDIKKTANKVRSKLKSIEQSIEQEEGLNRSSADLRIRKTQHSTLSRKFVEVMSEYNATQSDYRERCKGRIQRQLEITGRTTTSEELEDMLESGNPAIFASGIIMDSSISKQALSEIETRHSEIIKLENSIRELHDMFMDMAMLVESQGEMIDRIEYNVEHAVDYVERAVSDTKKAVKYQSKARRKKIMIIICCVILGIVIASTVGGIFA

Molecular target: SNAP-25 (UniProt P60880)
Settings: cited from earlier work

**Q.** Which Kd does the source give for Syntaxin-1a (from UniProt Q16623) here?
**A.** 126 nM
